Source: patent US10864192B2, “Compositions and methods for inhibiting brain trauma-induced neurodegeneration and related conditions” (priority 2016, dated 2020)

The chains behind the UniProt entries cited, without tags or fusion partners. Where a name states a change or a piece, a line headed by the entry shows the natural chain unless it says otherwise.
UniProt P22303: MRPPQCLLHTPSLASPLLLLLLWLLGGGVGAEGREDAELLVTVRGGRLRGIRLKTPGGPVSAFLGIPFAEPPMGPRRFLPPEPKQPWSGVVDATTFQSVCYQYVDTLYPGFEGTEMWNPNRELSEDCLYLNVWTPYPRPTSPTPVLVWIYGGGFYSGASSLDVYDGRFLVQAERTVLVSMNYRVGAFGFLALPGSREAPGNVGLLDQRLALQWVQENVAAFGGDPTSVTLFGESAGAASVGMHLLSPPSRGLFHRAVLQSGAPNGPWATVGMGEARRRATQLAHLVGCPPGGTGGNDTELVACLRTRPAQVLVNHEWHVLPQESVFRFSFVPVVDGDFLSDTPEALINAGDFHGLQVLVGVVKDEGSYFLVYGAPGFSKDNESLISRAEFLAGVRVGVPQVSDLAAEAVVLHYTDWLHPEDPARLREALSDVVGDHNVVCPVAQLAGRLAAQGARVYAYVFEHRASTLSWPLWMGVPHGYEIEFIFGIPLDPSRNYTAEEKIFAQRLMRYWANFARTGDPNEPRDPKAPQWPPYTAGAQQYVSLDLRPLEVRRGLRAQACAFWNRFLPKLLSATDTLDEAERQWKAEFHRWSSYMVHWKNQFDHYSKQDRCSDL

What was measured:
[1] = 15 mg immediate release dose
From the text: FIGS. 33-34 depict two graphs from an Excel spreadsheet. FIG. 33 is a linear plot of plasma level vs time and FIG. 34 is a semi-log plot of plasma conc. vs time.

[2] = Estimated EC50/IC50 of phenserine and metabolites for pharmacological activity in brain
[3] = system: Sprague-Dawley rats; experiment: Brain ischemia (MCA ligation), post-treatment; type: in vivo, rat; conditions: 1 mg/kg/day, day 1 to day 4 post-MCA occlusion; p=0.001 vs vehicle
[4] = system: mice; experiment: Novel object recognition after mTBI; type: in vivo, mouse; conditions: 2.5 and 5.0 mg/kg BID×5 days post mTBI, tested 7 days after injury; p<0.01 both doses
Protocol: (§1) The same model of concussive head injury described above with respect to FIG. 7 was used in the experiments described below with respect to FIGS. 8 and 9. We evaluated the clinical-behavioral actions of phenserine in the aforementioned simulated mTBI mouse model following two doses (2.5 and 5.0 mg/kg, i.p., BID×5 days) initiated 30 min following injury. […] Previous studies of drug and metabolite concentrations have shown acetylcholinesterase inhibition to be present when any concentration of drug or metabolite have been detected. […] Drug and its metabolites have been shown undetectable when no anticholinesterase activities are present.
(§2) Behavioral evaluation of animals subjected to injury in the model was undertaken at 7 days and later after injury, in accord with previous time-dependent studies. The assessed behavior involved (i) recognition memory assessed by the classical novel object recognition paradigm (FIG. 8) and, (ii), spatial memory evaluated by the Y-maze paradigm (FIG. 9), which in prior studies we and others found impaired by the induced injury. […]
Amelioration of spatial and visual memory impairments in a close head, mouse model of mild TBI (mTBI) was assessed using Novel Object Recognition that was performed two days and later following cessation of clinically translatable dosing of phenserine (2.5 and 5.0 mg/kg BID×5 days initiated post mTBI). […]

[5] = system: mice; experiment: Y-maze after mTBI; type: in vivo, mouse; conditions: 2.5 and 5.0 mg/kg BID×5 days post mTBI, tested 7 days after injury; p<0.01 for 2.5, p<0.05 for 5 mg/kg
Protocol: as §1
as §2, with “injury. The former task refers to the ability to discriminate a previously encountered (familiar) item from a novel one; a task that has become a valuable tool in basic and preclinical research for investigating the neural basis of memory, and that has parallels to visual paired-comparison tasks in studies in humans and monkeys.” for “injury.”

[6] = biological target: acetylcholinesterase (Homo sapiens (Human), UniProt P22303); experiment: Acetylcholinesterase activity assay of blood samples, illustrative treatment scenario (Example 14); type: in vivo; conditions: one week after starting dosing; 10 mg immediate release then 5 mg/hr for 12 hr twice daily
From the text: For each of the forthcoming illustrative treatment scenarios provided in Examples 11-14, the extended, controlled-release composition could be combined with an anti-inflammatory drug.
A professional football player presents with a concern that they may be at risk during the upcoming practice and playing season from concussions. They report at least one concussion prior to their professional career while in college play and a second. Both resolved without obvious impairments. They state they are at risk of further concussions and sub-concussive injuries and requests whatever prevention or protection is possible. The doctor prescribes a single immediate release 10 mg phenserine tablet to be taken immediately followed by a daily dosing oral formulation (an extended, controlled-release pill prescribed to release 5 mg/hr for 12 hr) with instructions to take one pill every morning upon arising and every evening with a meal until the playing and practice seasons have ended. To ensure that an adequate brain concentration of drug is present the doctor orders an immediate, followed by one week after starting dosing, acetylcholinesterase activity assay of blood samples. […] Since this is within the active range of the drug the doctor advises the patient to continue the current dosing.

CN1CC[C@@]2(C)c3cc(OC(=O)Nc4ccccc4)ccc3N(C)[C@@H]12 [phenserine, (−)-phenylcarbamoyleseroline]
t1/2 /Elim [1]: 33 to 55.2 min
Estimated EC50 [2]: 24-26 NanoMolar
IC50 ([2]; BNPCE IC50+/−25): 100 nM
infarction area [3]: significantly reduced
visual memory deficit (novel object recognition preference index) [4]: significantly ameliorated
spatial memory deficit (Y maze preference index) [5]: significantly ameliorated
blood acetylcholinesterase activity relative to pretreatment activity [6]: 51%
